## Binding of CDR-mutated scFvs to a peptide of the spike HR2 region

Reference: Engelhart et al. 2022, doi:10.1038/s41597-022-01779-4. File: FLAb, binding data.

Antigen: PDVDLGDISGINAS, a 14-residue peptide of the SARS-CoV-2 spike HR2 region.

Parent scFv Ab-91: VL joined to VH by the linker GGGGSGGGGSGGGGS. Changes lie in the heavy chain CDRs alone.
VL: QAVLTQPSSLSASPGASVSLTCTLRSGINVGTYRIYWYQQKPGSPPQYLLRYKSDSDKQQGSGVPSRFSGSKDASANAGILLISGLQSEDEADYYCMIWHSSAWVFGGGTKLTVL
VH: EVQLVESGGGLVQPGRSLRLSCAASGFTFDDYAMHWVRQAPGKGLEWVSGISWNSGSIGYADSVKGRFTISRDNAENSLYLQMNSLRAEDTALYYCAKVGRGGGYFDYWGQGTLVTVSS

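The starting antibody came from a phage panning campaign against this peptide. AAYL51 was designed without a model: most single CDR substitutions and a random sample of double and triple ones. In AlphaSeq, yeast of one mating type display the scFv and yeast of the other type display the target. Pairs that bind mate more often; barcode pairs of the diploids are counted by sequencing. Read counts were normalised to the haploid input and turned into Kd by a linear fit to BCL2-family pairs of known affinity, for each replicate. The assay was run in three technical replicates.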

Positions count from residue 1 of the parent VH; T28Y puts Y in place of T. All variants listed here change T28 of the VH, counted from its first residue. The Kd shown is the geometric mean over detected replicates; a lower Kd is a better binder. A pair that was not seen in any replicate is written "no signal"; this usually means weak binding, but a binder can also be missed. Nonspecific signal, from three strains lacking the peptide, appeared in 21% of pairings of library AAYL51, centred on 34 µM (5% of these signals below 1.8 µM); values are not corrected for it.

The variant T28Y/A61N/G100A gave 270 µM (2 of 3 replicates).
The variant G26A/T28K/G56T gave 3.9 µM (3 of 3 replicates).
The variant T28R gave 6.7 nM (3 of 3 replicates).
The variant T28D gave 310 nM (2 of 3 replicates).
The variant T28D/S55Y/I58W gave 61 µM (2 of 3 replicates).
The variant T28Q/W53M/Y105T gave 1.5 µM (2 of 3 replicates).
The variant T28F/W53C/V64D gave 24 µM (1 of 3 replicates).
The variant G26L/T28H/W53V gave no signal (0 of 3 replicates).
The variant T28Q/G102S/Y108M gave 14 nM (3 of 3 replicates).
The variant T28W/A33I gave 8.9 µM (1 of 3 replicates).
The variant T28M/A61N/G103H gave 81 µM (1 of 3 replicates).
The variant T28I/Y32S/I51N gave 33 µM (3 of 3 replicates).
The variant T28D/K65E/G102I gave 1.9 µM (3 of 3 replicates).
The variant T28L/Y32M/V64I gave 36 µM (3 of 3 replicates).
The variant T28H/M34K/R101Y gave no signal (0 of 3 replicates).
The variant T28H/G100K gave no signal (0 of 3 replicates).
The variant T28E/S55A/K65D gave 8.9 nM (3 of 3 replicates).
The variant T28W/H35I gave no signal (0 of 3 replicates).
The variant T28E/G50F/Y60Q gave no signal (0 of 3 replicates).
The variant T28N/D31T/G50D gave no signal (0 of 3 replicates).
The variant F27S/T28D/G50K gave no signal (0 of 3 replicates).
The variant T28F/N54Q/G103M gave 13 µM (1 of 3 replicates).
The variant G26W/T28D/G103R gave 97 µM (3 of 3 replicates).
The variant T28K/F29V/S52E gave no signal (0 of 3 replicates).
The variant T28D/H35P/D62I gave no signal (0 of 3 replicates).
The variant F27H/T28G/F106M gave no signal (0 of 3 replicates).
The variant T28V/S52M/G103W gave 72 µM (2 of 3 replicates).
The variant T28C/M34R/S57C gave 11 µM (1 of 3 replicates).
The variant F27P/T28Q/F29R gave 35 µM (1 of 3 replicates).
The variant T28F/A33P/I58N gave 19 µM (3 of 3 replicates).
The variant T28D/D62N gave 130 nM (3 of 3 replicates).
The variant G26Y/T28L gave 43 µM (1 of 3 replicates).
The variant T28A/S57R/Y108E gave 42 µM (2 of 3 replicates).
The variant T28D/N54R/G100Y gave 74 µM (2 of 3 replicates).
The variant T28K gave 15 nM (3 of 3 replicates).
The variant T28A/D31R gave 3.0 nM (3 of 3 replicates).
The variant T28R/D30F/S57K gave 180 µM (3 of 3 replicates).
The variant T28A/H35E/R101W gave 29 µM (1 of 3 replicates).
The variant T28H/V64Q/G103C gave no signal (0 of 3 replicates).
The variant T28N/N54E/G59Q gave 210 nM (1 of 3 replicates).
The variant T28A/A61C/Y108H gave 120 µM (2 of 3 replicates).
The variant T28S/A33R/A61I gave no signal (0 of 3 replicates).
The variant G26C/T28H/G56I gave 84 nM (3 of 3 replicates).
The variant T28V/F29L/G50A gave no signal (0 of 3 replicates).
The variant T28H/G56N/R101G gave 21 nM (3 of 3 replicates).

The 6 strongest on average among those seen in every replicate, once more:

changes,apparent Kd,seen in
T28A/D31R,3.0 nM,3 of 3
T28R,6.7 nM,3 of 3
T28E/S55A/K65D,8.9 nM,3 of 3
T28Q/G102S/Y108M,14 nM,3 of 3
T28K,15 nM,3 of 3
T28H/G56N/R101G,21 nM,3 of 3